B1: Proteasomal ubiquitin receptor ADRM1 (Homo sapiens), Q16186 (parent)
chain: MTTSGALFPSLVPGSRGASNKYLVEFRAGKMSLKGTTVTPDKRKGLVYIQQTDDSLIHFCWKDRTSGNVEDDLIIFPDDCEFKRVPQCPSGRVYVLKFKAGSKRLFFWMQEPKTDQDEEHCRKVNEYLNNPPMPGALGASGSSGHELSALGGEGGLQSLLGNMSHSQLMQLIGPAGLGGLGGLGALTGPGLASLLGSSGPPGSSSSSSSRSQSAAVTPSSTTSSTRATPAPSAPAAASATSPSPAPSSGNGASTAASPTQPIQLSDLQSILATMNVPAGPAGGQQVDLASVLTPEIMAPILANADVQERLLPYLPSGESLPQTADEIQNTLTSPQFQQALGMFSAALASGQLGPLMCQFGLPAEAVEAANKGDVEAFAKAMQNNAKPEQKEGDTKDKKDEEEDMSLD

Assays:
[1] = variants of: B1; conditions: with psmd1_human PSMD1, Q99460
[2] = variants of: B1; conditions: with psmd1_human PSMD1, Q99460; remark: listed apart in the source

Row | Variant | effect of a mutation on the interaction [1] | effect of a mutation on the interaction [2]
1 | MTTSGALFPSLVPGSRGASNKYLVEFRAGKMSLKGTTVTPDKRKGLVYIQQTDDSLIHFCWKDRTSGNVEDDLIIFPDDCEFARVPQCPSGRVYVLKFKAGSKRLFFWMQEPKTDQDEEHCRKVNEYLNNPPMPGALGASGSSGHELSALGGEGGLQSLLGNMSHSQLMQLIGPAGLGGLGGLGALTGPGLASLLGSSGPPGSSSSSSSRSQSAAVTPSSTTSSTRATPAPSAPAAASATSPSPAPSSGNGASTAASPTQPIQLSDLQSILATMNVPAGPAGGQQVDLASVLTPEIMAPILANADVQERLLPYLPSGESLPQTADEIQNTLTSPQFQQALGMFSAALASGQLGPLMCQFGLPAEAVEAANKGDVEAFAKAMQNNAKPEQKEGDTKDKKDEEEDMSLD [K83A] | decreasing interaction strength | with no effect
2 | MTTSGALFPSLVPGSRGASNKYLVEFRAGKMSLKGTTVTPDKRKGLVYIQQTDDSLIHFCWKDRTSGNVEDDLIIFPDDCEFKRVPQCPSGRVYVLAFKAGSKRLFFWMQEPKTDQDEEHCRKVNEYLNNPPMPGALGASGSSGHELSALGGEGGLQSLLGNMSHSQLMQLIGPAGLGGLGGLGALTGPGLASLLGSSGPPGSSSSSSSRSQSAAVTPSSTTSSTRATPAPSAPAAASATSPSPAPSSGNGASTAASPTQPIQLSDLQSILATMNVPAGPAGGQQVDLASVLTPEIMAPILANADVQERLLPYLPSGESLPQTADEIQNTLTSPQFQQALGMFSAALASGQLGPLMCQFGLPAEAVEAANKGDVEAFAKAMQNNAKPEQKEGDTKDKKDEEEDMSLD [K97A] | decreasing interaction strength | 
3 | MTTSGALFPSLVPGSRGASNKYLVEFRAGKMSLKGTTVTPDKRKGLVYIQQTDDSLIHFCWKDRTSGNVEDDLIIFPDDCEFKRVPQCPSGRVYVLDFKAGSKRLFFWMQEPKTDQDEEHCRKVNEYLNNPPMPGALGASGSSGHELSALGGEGGLQSLLGNMSHSQLMQLIGPAGLGGLGGLGALTGPGLASLLGSSGPPGSSSSSSSRSQSAAVTPSSTTSSTRATPAPSAPAAASATSPSPAPSSGNGASTAASPTQPIQLSDLQSILATMNVPAGPAGGQQVDLASVLTPEIMAPILANADVQERLLPYLPSGESLPQTADEIQNTLTSPQFQQALGMFSAALASGQLGPLMCQFGLPAEAVEAANKGDVEAFAKAMQNNAKPEQKEGDTKDKKDEEEDMSLD [K97D] | disrupting interaction strength | decreasing interaction strength
4 | MTTSGALFPSLVPGSRGASNKYLVEFRAGKMSLKGTTVTPDKRKGLVYIQQTDDSLIHFCWKDRTSGNVEDDLIIFPDDCEFKRVPQCPSGRVYVLEFKAGSKRLFFWMQEPKTDQDEEHCRKVNEYLNNPPMPGALGASGSSGHELSALGGEGGLQSLLGNMSHSQLMQLIGPAGLGGLGGLGALTGPGLASLLGSSGPPGSSSSSSSRSQSAAVTPSSTTSSTRATPAPSAPAAASATSPSPAPSSGNGASTAASPTQPIQLSDLQSILATMNVPAGPAGGQQVDLASVLTPEIMAPILANADVQERLLPYLPSGESLPQTADEIQNTLTSPQFQQALGMFSAALASGQLGPLMCQFGLPAEAVEAANKGDVEAFAKAMQNNAKPEQKEGDTKDKKDEEEDMSLD [K97E] | disrupting interaction strength | decreasing interaction strength
